The text below walks through data of patent publication US11814447B2, “Peptide ligands for binding to EphA2” (BICYCLERD LIMITED, priority 2018, dated 2023).

Chains of the proteins cited; added tags and fusions are not shown. Residues count along the entry.
UniProt P29317, 24-537 limits assumed: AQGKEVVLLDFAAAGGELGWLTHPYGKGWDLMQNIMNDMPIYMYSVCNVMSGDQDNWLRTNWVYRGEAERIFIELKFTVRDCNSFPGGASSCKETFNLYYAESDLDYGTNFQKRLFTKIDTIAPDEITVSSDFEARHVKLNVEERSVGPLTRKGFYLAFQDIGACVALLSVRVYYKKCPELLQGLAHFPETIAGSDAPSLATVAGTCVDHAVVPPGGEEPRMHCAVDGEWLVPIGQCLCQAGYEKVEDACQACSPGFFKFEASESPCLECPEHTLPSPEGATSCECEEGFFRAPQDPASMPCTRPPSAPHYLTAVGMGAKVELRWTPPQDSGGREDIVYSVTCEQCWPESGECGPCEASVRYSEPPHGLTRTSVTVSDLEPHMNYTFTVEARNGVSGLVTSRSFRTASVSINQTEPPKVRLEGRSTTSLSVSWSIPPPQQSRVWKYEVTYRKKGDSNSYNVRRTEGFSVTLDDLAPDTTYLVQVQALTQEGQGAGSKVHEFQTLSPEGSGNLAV

The target of one test is Human EphA2 (Homo sapiens, UniProt P29317). As to the kind of experiment: biochemical.
The next test deals with T1, Human EphA2 (Ecto) (Human, UniProt P29317 24-537).
T1 construct: extracellular domain; in-house)
As to the kind of experiment: FP competition; tracer Reference Compound C.

In test [1] the target is T2, Human EphA2 (Ecto), C-terminal polyHis (Human, UniProt P29317 24-537).
T2 construct: extracellular domain; also called EPH receptor A2; ephrin type-A receptor 2
Nature of the test: fluorescence polarisation competition; competitor fluorescent Compound 12. On the technique in general: Fluorescence polarisation rises when a labelled molecule tumbles more slowly, as on binding a larger partner.

The target in test [2] is T2, Human EphA2 (Ecto), C-terminal polyHis. Nature of the test: fluorescence polarisation competition; competitor fluorescent Compound 66.
Test [3] shares this target. Nature of the test: fluorescence polarisation competition; competitor fluorescent Compound 18.

For orientation: Ki means a measure of affinity in units of concentration, obtained from inhibition or displacement. The low end stands for higher affinity, the high end for lower affinity.

At Human EphA2, `CC[C@H](C)[C@@H]1NC(=O)[C@H](Cc2c[nH]c3ccccc23)NC(=O)CNC(=O)[C@@H]2CCCN2C(=O)[C@H]([C@@H](C)O)NC(=O)[C@H](CC(C)C)NC(=O)[C@@H]2CSCCC(=O)N3CN(CN(C3)C(=O)CCSC[C@H](NC(=O)[C@H](C)N)C(=O)N3CCC[C@H]3C(=O)N[C@@H](CCSC)C(=O)N[C@@H](C(C)C)C(=O)N[C@@H](CC(N)=O)C(=O)N3CCC[C@H]3C(=O)N[C@@H](CC(C)C)C(=O)N2)C(=O)CCSC[C@@H](C(=O)N[C@@H](C)C(N)=O)NC1=O` [96 (B series)] yielded a Ki of 16.1 ± 4.58 nM.

For the molecule RHDCPLVNPLCLLPGWTCA (3 Cys thioether-linked to TATA scaffold) [Bicycle Compound Number 80 (TATA scaffold), RHDCPLVNPLCLLPGWTCA], the Ki with Human EphA2 (Ecto) stood at 7.11 nM. Regarding ACVPQGIWCALRYEPCA (3 Cys thioether-linked to TBMB scaffold, also called Compound 65) [Bicycle Compound Number 65 (TBMB scaffold)], in test [1], the Ki worked out at 229 nM.

In test [2], ACPWGPAWCPVSRVCA (3 Cys thioether-linked to TBMB scaffold, also called Compound 49) [Bicycle Compound Number 49 (TBMB scaffold)] displayed a Ki of 428 nM. The molecule ACPLVNPLCLAPGWTCSRS (3 Cys thioether-linked to TATA scaffold) [Bicycle Compound Number 83 (TATA scaffold), ACPLVNPLCLAPGWTCSRS] displayed a Ki with Human EphA2 (Ecto) of 7.05 nM.

ADHACPWGPFWCPVNRPGCA (3 Cys thioether-linked to TBMB scaffold, also called Compound 56) [Bicycle Compound Number 56 (TBMB scaffold)] showed a Ki in test [2] of 5.87 nM. In other words, the single-digit nanomolar range. In test [2], ACMNDWLCQLGWKCA (3 Cys thioether-linked to TBMB scaffold, also called Compound 28) [Bicycle Compound Number 28 (TBMB scaffold)] yielded a Ki of 113 nM.

Consider ACMNDWLCELGWTCA (3 Cys thioether-linked to TBMB scaffold, also called Compound 29) [Bicycle Compound Number 29 (TBMB scaffold)], for which, in test [2], the Ki was determined as 134 nM. Consider ACTQNDWLCSLGWTCA (3 Cys thioether-linked to TBMB scaffold, also called Compound 31) [Bicycle Compound Number 31 (TBMB scaffold)], for which, in test [2], the affinity corresponds to a Ki of 152 nM. This Ki and that of the molecule before are within 1.5-fold of each other. Take ACPWGPAWCPVNRPGCA (3 Cys thioether-linked to TBMB scaffold, also called Compound 44) [Bicycle Compound Number 44 (TBMB scaffold)]: the affinity in test [2], expressed as Ki, was 191 nM. This Ki and that of the molecule before are within 1.5-fold of each other. With ACPWGPNWCPVNRPGCA (3 Cys thioether-linked to TBMB scaffold, also called Compound 47) [Bicycle Compound Number 47 (TBMB scaffold)], the Ki in test [2] is 78.3 nM. As for ACPWGPAWCPVRSCA (3 Cys thioether-linked to TBMB scaffold, also called Compound 50) [Bicycle Compound Number 50 (TBMB scaffold)], affinity in test [2] was put at a Ki of 314 nM. As to ACPWGPAWCPVNGARCA (3 Cys thioether-linked to TBMB scaffold, also called Compound 43) [Bicycle Compound Number 43 (TBMB scaffold)], the Ki in test [2] was 430 nM. For ANDVTCPWGPFWCPVNRPGCA (3 Cys thioether-linked to TBMB scaffold, also called Compound 61) [Bicycle Compound Number 61 (TBMB scaffold)], the figures for the Ki in test [3] and in test [2] were 2.93 nM and 7.3 nM, respectively. ACPWGPAWCPVKPTCA (3 Cys thioether-linked to TBMB scaffold, also called Compound 51) [Bicycle Compound Number 51 (TBMB scaffold)]: the affinity in test [2] corresponds to a Ki of 318 nM. As to ACPWGPAWCPVRNPCA (3 Cys thioether-linked to TBMB scaffold, also called Compound 48) [Bicycle Compound Number 48 (TBMB scaffold)], the Ki in test [2] was 284 nM. The Ki values of the last two molecules are within 1.5-fold of each other. The same measure, in the same setting: the figure for ACRVSPEYCPFGPTWCA (3 Cys thioether-linked to TBMB scaffold, also called Compound 35) [Bicycle Compound Number 35 (TBMB scaffold)] is 43.2 nM. Consider ACRVSPEYCPFGPDWCA (3 Cys thioether-linked to TBMB scaffold, also called Compound 40) [Bicycle Compound Number 40 (TBMB scaffold)], for which the Ki in test [2] turned out to be 55.4 nM. The Ki values of the last two molecules are within 1.5-fold of each other. For the molecule ACRVSPEYCPFGPLWCA (3 Cys thioether-linked to TBMB scaffold, also called Compound 39) [Bicycle Compound Number 39 (TBMB scaffold)], in test [2], the Ki worked out at 32.1 nM.
